# Patent publication US11738082B2, “High concentration protein formulations with reduced viscosity” (Bhami's Research Laboratory, Pvt. Ltd., priority 2017, dated 2023)
# Test system: Human Gamma Globulin (HGG), GLOBUCEL®
# Assay: Viscosity of aqueous solutions of Human Gamma Globulin (Cambridge VISCOlab5000 or DV2T cone and plate viscometer)
# Conditions: excipient 5.84 mg/mL (100 mM), 25 mM histidine buffer pH 6.0
structure (smiles),measurement,setting,value
[Cl-].[Na+] [Sodium Chloride],Viscosity (cP) @ 25° C.,HGG 227 mg/mL,48 cP
same,Viscosity (cP) @ 25° C.,HGG 249 mg/mL,115 cP
